Amino acid sequences for entries named in this document (tags omitted).
UniProt P10980, whole entry, looked up: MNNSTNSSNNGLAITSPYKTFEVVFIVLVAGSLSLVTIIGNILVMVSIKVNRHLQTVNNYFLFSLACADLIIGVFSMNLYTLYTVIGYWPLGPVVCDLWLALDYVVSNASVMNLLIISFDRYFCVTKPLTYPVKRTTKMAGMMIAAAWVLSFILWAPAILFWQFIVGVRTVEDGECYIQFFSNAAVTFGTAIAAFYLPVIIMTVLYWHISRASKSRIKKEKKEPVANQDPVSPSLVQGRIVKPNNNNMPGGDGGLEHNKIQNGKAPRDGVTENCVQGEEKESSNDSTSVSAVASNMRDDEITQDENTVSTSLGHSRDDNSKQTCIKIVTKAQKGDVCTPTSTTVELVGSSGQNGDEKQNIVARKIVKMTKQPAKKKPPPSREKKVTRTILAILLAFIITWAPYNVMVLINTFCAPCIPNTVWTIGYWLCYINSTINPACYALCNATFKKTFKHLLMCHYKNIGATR
UniProt P08483, whole entry, looked up: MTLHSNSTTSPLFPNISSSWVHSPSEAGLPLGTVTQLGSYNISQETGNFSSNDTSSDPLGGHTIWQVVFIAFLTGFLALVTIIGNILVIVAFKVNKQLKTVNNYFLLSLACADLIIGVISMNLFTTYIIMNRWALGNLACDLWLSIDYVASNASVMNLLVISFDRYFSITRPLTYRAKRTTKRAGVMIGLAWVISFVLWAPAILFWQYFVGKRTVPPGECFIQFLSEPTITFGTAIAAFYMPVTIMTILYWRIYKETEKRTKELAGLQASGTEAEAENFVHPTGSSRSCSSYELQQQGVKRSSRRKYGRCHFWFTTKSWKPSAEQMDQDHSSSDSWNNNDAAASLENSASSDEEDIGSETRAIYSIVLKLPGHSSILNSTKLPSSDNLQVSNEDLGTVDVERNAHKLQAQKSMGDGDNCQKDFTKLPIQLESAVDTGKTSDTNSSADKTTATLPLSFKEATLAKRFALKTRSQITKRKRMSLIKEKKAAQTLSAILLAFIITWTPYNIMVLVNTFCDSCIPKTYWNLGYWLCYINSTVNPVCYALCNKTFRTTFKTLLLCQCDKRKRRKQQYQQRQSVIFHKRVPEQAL

In patent publication US7465751B2 (priority 2002, dated 2008):

Columns and labels:
[1] = molecular target: M2 muscarinic receptor (Rattus norvegicus, UniProt P10980); assay: Radioligand binding assay, [3H]-N-methyl scopolamine, rat heart membranes; conditions: [3H]-NMS, Ki by Cheng & Prusoff
[2] = molecular target: M3 muscarinic receptor (Rattus norvegicus, UniProt P08483); conditions: rat submandibular gland membranes, [3H]-NMS, Ki by Cheng & Prusoff

SMILES | Receptor Binding Assay M2 PKi [1] | Receptor Binding Assay M3 pki [2]
O=C(N[C@H]1CCN(Cc2ccccc2)C1)C(O)(c1ccccc1)C1CCCC1 (stereo partly shown) | <5 | <5
O=C(N[C@H]1CCN(CCc2ccc3c(c2)OCO3)C1)C(O)(c1ccccc1)C1CCCC1 (stereo partly shown) | 5.75 | 6.97
